High-throughput results: PubChem, National Center for Advancing Translational Sciences (NCATS)
Nrf2 block: inhibitors of Nrf2 signaling; 2.1% of 360,000 active; Potency, µM (titrated, usually from 46 µM), for inactives: top-dose activity change, negative = inhibition, actives largely listed as inhibitors; AID 504444; A549 ARE-Fluc reporter, luciferase luminescence, 18-24 h; further: potency means the concentration at half of the fitted maximal effect; on the % scale 0 is the no-effect control and ±100 the full control effect; nearly all actives have a fitted effect of over 60% in size
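Nrf2 function is reported as luminescence of an ARE-controlled luciferase in A549 cells. Compounds were tested at several concentrations, and a CellTiter-Fluor read on the same wells flagged cytotoxicity.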
IL-2 act: activators of IL-2. AID 652025. IL-2 activation reporter assay, cell-based qHTS; stimulated with anti-CD3/CD4/CD28 beads; in transgenic mouse T cells. 0.065% of 360,000 active. activation, % (series mostly up to about 46 µM); in the data active means activation above about 50%; inconclusive means mostly about 30% to 49%; further: 0% is about no effect
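Unstimulated transgenic mouse T cells, 750 per well, received compound and, after 60 minutes, anti-CD3/anti-CD4 bead plus anti-CD28 stimulation. EGFP and DsRed were quantified after 18 hours.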
A549 tox: kills or reduces viability of A549 cells in Nrf2 counter-screen; AID 504648; 0.16% of 390,000 active; A549 ARE-Fluc cells, CellTiter-Fluor viability, 18-24 h; Potency, µM (doses to about 46 µM), for inactives: at the highest dose activity change, negative = cytotoxicity, most hits filed as inhibitors; further: potency means the concentration at half of the fitted maximal effect; on the % scale 0 is the no-effect control and ±100 the full control effect
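A549 ARE_Fluc cells in 5% FBS OPTI-MEM were exposed to compounds in concentration-response for 18-24 h at 37 deg C. Viability was read by CellTiter-Fluor fluorescence (Ex 405/Em 525) after 30 min, before the luciferase read.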
ClpP mod: qHTS Assay for Activators of ClpP; ATP-dependent Clp protease proteolytic subunit (Bacillus subtilis (strain 168)), P80244; purified B. subtilis ClpP, FRET peptide cleavage, 20 min; Potency, µM (highest dose often 57.5 µM), for the others: at the top dose activity change, negative = active; 1.9% of 340,000 active; active means well fitted falling curve with a large enough effect; inconclusive means small, poorly fitted or top-dose-only effect; inactive means no such curve, though single readings can be large or run the other way; further: potency means the concentration at half of the fitted maximal effect; the source files actives as falling curves though it sought activators and does not explain the sign; nearly all actives have a fitted effect of over 65% in size
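ClpP 10 microg/mL final, pH 8 Tris/KCl buffer with BSA, glycerol, Tween-20; compound pinned in; FRET-FV substrate; RT 20 min; Ex320/Em430; ΔFRET vs ADEP 5.8 microM, DMSO, no enzyme.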
miR-21 FLuc: miR-21 reporter, rising signal | AID 2288 | HeLa miR-21 FLuc reporter, luciferase, 48 h | 340,000 tested, under 10 active | Potency, µM (titrated, usually from 38.3 µM), for the others: at the top dose reporter change, positive = more light; active = well fitted rising curve with a large enough effect; inconclusive = small, poorly fitted or top-dose-only effect; inactive = no such curve, though single readings can be large or run the other way;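 also: % of control where 0% means no effect; miR-21 action dims this reporter so a rising signal means less miR-21 action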
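Luminescence from a firefly luciferase reporter carrying a miR-21 binding site downstream, stably expressed under a CMV promoter in HeLa cells that make miR-21 endogenously, reports miRNA modulation after 48 h compound exposure up to approximately 40uM final.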
Nrf2 ARE act: activators of Nrf2 (ARE) signaling; AREc32 ARE-luciferase reporter (MCF7-derived line), luminescence, 24 h; Potency, µM (series often up to 46.1 µM), without a hit: at the highest dose activation, usual class: activators; 0.31% of 410,000 active; AID 624171; further: potency means the concentration at half of the fitted maximal effect; % of control where 0% means no effect; nearly all actives have a fitted effect of over 65% in size
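Luminescent ARE reporter assay in AREc32_Fluc cells: overnight plating at 37 deg C, 24 hr compound incubation, Steady-Glo added, 30 min RT before reading.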
Numbers without * were called inactive. In the library only some 3.7% were active in any assay of this set; here they are far more common. Unless noted, the call rests on the fitted dose curve; in most records, active means well fitted curve in the direction sought with a large enough effect; inconclusive means small, poorly fitted or top-dose-only effect, or another doubt; inactive means no such curve, though single readings can be large; an effect the other way counts as inactive or inconclusive.

How did CCOc1cc(C2C3=C(CCCC3=O)N(CCC(=O)O)C3=C2C(=O)CCC3)ccc1OS(=O)(=O)c1ccc(C)cc1 do in these assays?
Nrf2 block: -3%; IL-2 act: 2; A549 tox: 19%; ClpP mod: inconclusive; miR-21 FLuc: -3%; Nrf2 ARE act: 0%

Results for Cc1ccc2c(c1)Cc1c(nc(-c3ccc(Cl)cc3)nc1SCC(=O)N1CCCCC1)O2 ?
Nrf2 block: -7%; A549 tox: 7%; ClpP mod: -5%; miR-21 FLuc: 1%; Nrf2 ARE act: 0%

Results for O=c1[nH]c(C2CCN(S(=O)(=O)c3ccc(C(F)(F)F)cc3)CC2)nc2c1nnn2Cc1cccc(F)c1 ?
Nrf2 block: inconclusive; IL-2 act: 2; A549 tox: -15%; miR-21 FLuc: -1%; Nrf2 ARE act: 0%

Results for O=c1[nH]c(C2CCN(S(=O)(=O)c3ccccc3C(F)(F)F)CC2)nc2c1nnn2Cc1cccc(F)c1 ?
Nrf2 block: 23µM*; IL-2 act: 1; A549 tox: inconclusive; miR-21 FLuc: -8%; Nrf2 ARE act: 2%

Results for O=c1[nH]c(C2CCN(S(=O)(=O)c3ccccc3)CC2)nc2c1nnn2Cc1cccc(Cl)c1 ?
Nrf2 block: -1%; IL-2 act: -3; A549 tox: 12%; miR-21 FLuc: 1%; Nrf2 ARE act: 3%

How did O=c1[nH]c(C2CCN(S(=O)(=O)c3cccc(Cl)c3)CC2)nc2c1nnn2Cc1ccccc1 do in these assays?
Nrf2 block: 15µM*; IL-2 act: -3; A549 tox: inconclusive; ClpP mod: -3%; miR-21 FLuc: -1%; Nrf2 ARE act: 5%

Results for Cc1ccc(C(=O)OCC(=O)N(C)c2ccccc2)c(C)c1 ?
Nrf2 block: 4%; IL-2 act: -1; A549 tox: 0%; miR-21 FLuc: -18%; Nrf2 ARE act: 2%

How did CN(C(=O)COC(=O)c1ccc2ccccc2n1)c1ccccc1 do in these assays?
Nrf2 block: inconclusive; IL-2 act: 3; A549 tox: 8%; ClpP mod: 10µM*; Nrf2 ARE act: 0%

What do the screens show for `CN(C(=O)COC(=O)c1ccc([N+](=O)[O-])cc1N)c1ccccc1`?
Nrf2 block: 10%; IL-2 act: 77*; A549 tox: 0%; ClpP mod: 0%; miR-21 FLuc: -11%; Nrf2 ARE act: 3%

Results for CCCc1nn2c(=O)cc(COC(=O)c3ccccc3NC(=O)COc3ccccc3F)nc2s1 ?
A549 tox: 1%; ClpP mod: -1%; miR-21 FLuc: -5%; Nrf2 ARE act: 0%

How did Cc1cccc(-c2noc(-c3cccnc3NCc3ccccc3Cl)n2)c1 do in these assays?
Nrf2 block: inconclusive; A549 tox: -10%; ClpP mod: inconclusive; miR-21 FLuc: 16%; Nrf2 ARE act: 0%

Results for CCCCc1cc(=O)oc2cc(C)cc(OCC(=O)NCC3CCC(C(=O)O)CC3)c12 (stereo unspecified) ?
Nrf2 block: -15%; IL-2 act: 0; A549 tox: 5%; ClpP mod: 5%; miR-21 FLuc: 0%; Nrf2 ARE act: -1%

What do the screens show for `CCCCc1cc(=O)oc2cc(C)cc(OCC(=O)O)c12`?
Nrf2 block: 10%; IL-2 act: -4; A549 tox: -20%; ClpP mod: 8.9µM*; miR-21 FLuc: -6%; Nrf2 ARE act: 0%

How did CCN(CC)CCNc1nc(-c2ccco2)c2c(c1C#N)CC(C)(C)OC2 do in these assays?
Nrf2 block: 14%; IL-2 act: -1; A549 tox: inconclusive; ClpP mod: inconclusive; miR-21 FLuc: -3%; Nrf2 ARE act: -1%

Three structures out of the list, arranged by heavy-atom count, rising:
Results for O=c1[nH]c(C2CCN(S(=O)(=O)c3ccccc3)CC2)nc2c1nnn2Cc1cccc(Cl)c1 ?
Nrf2 block: -1%; IL-2 act: -3; A549 tox: 12%; miR-21 FLuc: 1%; Nrf2 ARE act: 3%

Results for O=c1[nH]c(C2CCN(S(=O)(=O)c3ccccc3C(F)(F)F)CC2)nc2c1nnn2Cc1cccc(F)c1 ?
Nrf2 block: 23µM*; IL-2 act: 1; A549 tox: inconclusive; miR-21 FLuc: -8%; Nrf2 ARE act: 2%

How did CCOc1cc(C2C3=C(CCCC3=O)N(CCC(=O)O)C3=C2C(=O)CCC3)ccc1OS(=O)(=O)c1ccc(C)cc1 do in these assays?
Nrf2 block: -3%; IL-2 act: 2; A549 tox: 19%; ClpP mod: inconclusive; miR-21 FLuc: -3%; Nrf2 ARE act: 0%
